molecular target: Recombinant heterodimeric HCV NS3/NS4A protease (strain 1a) (Hepatitis C virus genotype 1a, UniProt P27958); experiment: Spectrophotometric assay for HCV protease inhibitory activity; assay type: biochemical; details: Table 2, range

The chains behind the UniProt entries cited, without tags or fusion partners. Residues count along the entry.
UniProt P27958, 1027-1657: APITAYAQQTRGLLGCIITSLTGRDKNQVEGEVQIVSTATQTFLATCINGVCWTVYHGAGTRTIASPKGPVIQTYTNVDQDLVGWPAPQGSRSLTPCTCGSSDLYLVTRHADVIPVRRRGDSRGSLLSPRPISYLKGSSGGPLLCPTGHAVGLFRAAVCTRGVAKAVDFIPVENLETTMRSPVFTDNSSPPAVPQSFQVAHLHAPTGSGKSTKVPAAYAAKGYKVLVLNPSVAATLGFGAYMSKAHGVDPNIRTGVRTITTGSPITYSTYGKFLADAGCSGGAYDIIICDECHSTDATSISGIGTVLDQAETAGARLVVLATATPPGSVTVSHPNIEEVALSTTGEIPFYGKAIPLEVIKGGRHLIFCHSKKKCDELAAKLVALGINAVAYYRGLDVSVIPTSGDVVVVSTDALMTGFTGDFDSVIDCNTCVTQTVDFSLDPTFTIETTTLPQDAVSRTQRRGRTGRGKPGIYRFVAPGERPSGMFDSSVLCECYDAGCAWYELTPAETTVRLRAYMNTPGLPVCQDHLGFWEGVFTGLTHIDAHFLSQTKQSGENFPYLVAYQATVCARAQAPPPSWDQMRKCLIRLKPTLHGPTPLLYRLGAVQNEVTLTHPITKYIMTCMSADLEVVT
UniProt P27958, 1658-1711: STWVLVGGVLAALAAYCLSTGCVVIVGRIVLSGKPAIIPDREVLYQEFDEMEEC

Structure (SMILES) | Ki [µM]
CCCCC(NC(=O)[C@@H]1[C@@H]2[C@H](CN1C(=O)[C@@H](NC(=O)N[C@H](CN(C)S(C)(=O)=O)C(C)(C)C)C(C)(C)C)C2(C)C)C(=O)C(=O)NC (some centres unmarked) [Compound 11135] | ≤ 0.075
CCCC(NC(=O)[C@@H]1[C@@H]2[C@H](CN1C(=O)[C@@H](NC(=O)N[C@H](CN(C)S(=O)(=O)c1cccs1)C(C)(C)C)C(C)(C)C)C2(C)C)C(=O)C(=O)NCCOC (some centres unmarked) [Compound 11136] | 0.075 to 0.25
C=CCNC(=O)C(=O)C(CC1CCC1)NC(=O)[C@@H]1[C@@H]2[C@H](CN1C(=O)[C@@H](NC(=O)N[C@H](CN(C)S(C)(=O)=O)C(C)(C)C)C1(C)CCCCC1)C2(C)C (some centres unmarked) [Compound 11137] | ≤ 0.075
CN(C[C@@H](NC(=O)N[C@H](C(=O)N1C[C@H]2[C@@H]([C@H]1C(=O)NC(CC1CC1)C(=O)C(N)=O)C2(C)C)C1(C)CCCCC1)C(C)(C)C)S(=O)(=O)c1cccs1 (some centres unmarked) [Compound 11138] | ≤ 0.075
CN(C[C@@H](NC(=O)N[C@H](C(=O)N1C[C@H]2[C@@H]([C@H]1C(=O)NC(CC1CCC1)C(=O)C(N)=O)C2(C)C)C1(C)CCCCC1)C(C)(C)C)S(=O)(=O)c1cccs1 (some centres unmarked) [Compound 11139] | ≤ 0.075
C=CCNC(=O)C(=O)C(CC1CC1)NC(=O)[C@@H]1[C@@H]2[C@H](CN1C(=O)[C@@H](NC(=O)N[C@H](CN(C)S(=O)(=O)c1cccs1)C(C)(C)C)C1(C)CCCCC1)C2(C)C (some centres unmarked) [Compound 11140] | ≤ 0.075
C=CCNC(=O)C(=O)C(CCC)NC(=O)[C@@H]1[C@@H]2[C@H](CN1C(=O)[C@@H](NC(=O)N[C@H](CN(C)S(=O)(=O)c1cccs1)C(C)(C)C)C1(C)CCCCC1)C2(C)C (some centres unmarked) [Compound 11141] | ≤ 0.075
C=CCNC(=O)C(=O)C(CCCC)NC(=O)[C@@H]1[C@@H]2[C@H](CN1C(=O)[C@@H](NC(=O)N[C@H](CN(C)S(=O)(=O)c1cccs1)C(C)(C)C)C1(C)CCCCC1)C2(C)C (some centres unmarked) [Compound 11142] | ≤ 0.075
C=CCNC(=O)C(=O)C(CCC(F)(F)F)NC(=O)[C@@H]1[C@@H]2[C@H](CN1C(=O)[C@@H](NC(=O)N[C@H](CN(C)S(=O)(=O)c1cccs1)C(C)(C)C)C1(C)CCCCC1)C2(C)C (some centres unmarked) [Compound 11143] | ≤ 0.075
C#CCCC(NC(=O)[C@@H]1[C@@H]2[C@H](CN1C(=O)[C@@H](NC(=O)N[C@H](CN(C)S(=O)(=O)c1cccs1)C(C)(C)C)C(C)(C)C)C2(C)C)C(=O)C(=O)NCCC (some centres unmarked) [Compound 11144] | ≤ 0.075
C=CCNC(=O)C(=O)C(CC1CC1)NC(=O)[C@@H]1[C@@H]2[C@H](CN1C(=O)[C@@H](NC(=O)N[C@H](CN(C)S(=O)(=O)c1ccccn1)C(C)(C)C)C(C)(C)C)C2(C)C (some centres unmarked) [Compound 11145] | ≤ 0.075
C=CCNC(=O)C(=O)C(CCC)NC(=O)[C@@H]1[C@@H]2[C@H](CN1C(=O)[C@@H](NC(=O)N[C@H](CN(C)S(=O)(=O)c1ccccn1)C(C)(C)C)C(C)(C)C)C2(C)C (some centres unmarked) [Compound 11146] | ≤ 0.075
CN(C[C@@H](NC(=O)N[C@H](C(=O)N1C[C@H]2[C@@H]([C@H]1C(=O)NC(CC1CC1)C(=O)C(N)=O)C2(C)C)C1Cc2ccccc2C1)C(C)(C)C)S(C)(=O)=O (some centres unmarked) [Compound 11147] | ≤ 0.075
C=CCNC(=O)C(=O)C(CC1CCC1)NC(=O)[C@@H]1[C@@H]2[C@H](CN1C(=O)[C@@H](NC(=O)N[C@H](CN(C)S(=O)(=O)c1cccs1)C(C)(C)C)C1(C)CCCCC1)C2(C)C (some centres unmarked) [Compound 11148] | ≤ 0.075
C#CCCC(NC(=O)[C@@H]1[C@@H]2[C@H](CN1C(=O)[C@@H](NC(=O)N[C@H](CN(C)S(C)(=O)=O)C(C)(C)C)C1(C)CCCCC1)C2(C)C)C(=O)C(=O)NCC=C (some centres unmarked) [Compound 11149] | ≤ 0.075
CCCC(NC(=O)[C@@H]1[C@@H]2[C@H](CN1C(=O)[C@@H](NC(=O)N[C@H](CN(C)S(C)(=O)=O)C(C)(C)C)C1(C)CCCCC1)C2(C)C)C(=O)C(N)=O (some centres unmarked) [Compound 11150] | ≤ 0.075
CN(C[C@@H](NC(=O)N[C@H](C(=O)N1C[C@H]2[C@@H]([C@H]1C(=O)NC(CC1CCC1)C(=O)C(N)=O)C2(C)C)C1Cc2ccccc2C1)C(C)(C)C)S(C)(=O)=O (some centres unmarked) [Compound 11151] | ≤ 0.075
C=CCNC(=O)C(=O)C(CC1CC1)NC(=O)[C@@H]1[C@@H]2[C@H](CN1C(=O)[C@@H](NC(=O)N[C@H](CN(Cc1ccccc1)S(C)(=O)=O)C(C)(C)C)C(C)(C)C)C2(C)C (some centres unmarked) [Compound 11152] | ≤ 0.075
CC(C)(C)[C@H](NC(=O)N[C@H](CN(Cc1ccccc1)S(C)(=O)=O)C(C)(C)C)C(=O)N1C[C@H]2[C@@H]([C@H]1C(=O)NC(CC1CCC1)C(=O)C(N)=O)C2(C)C (some centres unmarked) [Compound 11153] | ≤ 0.075
C=CCNC(=O)C(=O)C(CCC)NC(=O)[C@@H]1[C@@H]2[C@H](CN1C(=O)[C@@H](NC(=O)N[C@H](CN(C)S(=O)(=O)c1cccs1)C1CCCCC1)C(C)(C)C)C2(C)C (some centres unmarked) [Compound 11154] | ≤ 0.075
C=CCNC(=O)C(=O)C(CCC)NC(=O)[C@@H]1[C@@H]2[C@H](CN1C(=O)[C@@H](NC(=O)N[C@H](CN(C)S(=O)(=O)c1sc(C)nc1C)C1CCCCC1)C(C)(C)C)C2(C)C (some centres unmarked) [Compound 11155] | ≤ 0.075
CCS(=O)(=O)N(C)C[C@@H](NC(=O)N[C@H](C(=O)N1C[C@H]2[C@@H]([C@H]1C(=O)NC(CC1CC1)C(=O)C(N)=O)C2(C)C)C(C)(C)C)C1CCCCC1 (some centres unmarked) [Compound 11156] | ≤ 0.075

Structure (SMILES) | Ki [µM]
CN(C[C@@H](NC(=O)N[C@H](C(=O)N1C[C@H]2[C@@H]([C@H]1C(=O)NC(CC1CC1)C(=O)C(N)=O)C2(C)C)C(C)(C)C)C1CCCCC1)S(=O)(=O)c1cccs1 (some centres unmarked) [Compound 11157] | ≤ 0.075
Cc1nc(C)c(S(=O)(=O)N(C)C[C@@H](NC(=O)N[C@H](C(=O)N2C[C@H]3[C@@H]([C@H]2C(=O)NC(CC2CC2)C(=O)C(N)=O)C3(C)C)C(C)(C)C)C2CCCCC2)s1 (some centres unmarked) [Compound 11158] | ≤ 0.075
C=CCNC(=O)C(=O)C(CCCC)NC(=O)[C@@H]1[C@@H]2[C@H](CN1C(=O)[C@@H](NC(=O)N[C@H](CN(Cc1ccccc1)S(C)(=O)=O)C(C)(C)C)C(C)(C)C)C2(C)C (some centres unmarked) [Compound 11159] | ≤ 0.075
CCS(=O)(=O)N(C)C[C@@H](NC(=O)N[C@H](C(=O)N1C[C@H]2[C@@H]([C@H]1C(=O)NC(CC1CCC1)C(=O)C(N)=O)C2(C)C)C(C)(C)C)C1CCCCC1 (some centres unmarked) [Compound 11160] | ≤ 0.075
CN(C[C@@H](NC(=O)N[C@H](C(=O)N1C[C@H]2[C@@H]([C@H]1C(=O)NC(CC1CCC1)C(=O)C(N)=O)C2(C)C)C(C)(C)C)C1CCCCC1)S(=O)(=O)c1cccs1 (some centres unmarked) [Compound 11161] | ≤ 0.075
Cc1nc(C)c(S(=O)(=O)N(C)C[C@@H](NC(=O)N[C@H](C(=O)N2C[C@H]3[C@@H]([C@H]2C(=O)NC(CC2CCC2)C(=O)C(N)=O)C3(C)C)C(C)(C)C)C2CCCCC2)s1 (some centres unmarked) [Compound 11162] | ≤ 0.075
C=CCNC(=O)C(=O)C(CCC)NC(=O)[C@@H]1C[C@@H](Cl)CN1C(=O)[C@@H](NC(=O)N[C@H](CN(C)S(C)(=O)=O)C(C)(C)C)C1CCCCC1 (some centres unmarked) [Compound 11163] | ≤ 0.075
C=CCNC(=O)C(=O)C(CCC(F)(F)F)NC(=O)[C@@H]1C[C@@H](Cl)CN1C(=O)[C@@H](NC(=O)N[C@H](CN(C)S(C)(=O)=O)C(C)(C)C)C1CCCCC1 (some centres unmarked) [Compound 11164] | ≤ 0.075
C#CCCC(NC(=O)[C@@H]1C[C@@H](Cl)CN1C(=O)[C@@H](NC(=O)N[C@H](CN(C)S(C)(=O)=O)C(C)(C)C)C1CCCCC1)C(=O)C(=O)NCC=C (some centres unmarked) [Compound 11165] | ≤ 0.075
CN(C[C@@H](NC(=O)N[C@H](C(=O)N1C[C@H](Cl)C[C@H]1C(=O)NC(CC1CC1)C(=O)C(N)=O)C1CCCCC1)C(C)(C)C)S(C)(=O)=O (some centres unmarked) [Compound 11166] | ≤ 0.075
CN(C[C@@H](NC(=O)N[C@H](C(=O)N1C[C@H](Cl)C[C@H]1C(=O)NC(CC1CCC1)C(=O)C(N)=O)C1CCCCC1)C(C)(C)C)S(C)(=O)=O (some centres unmarked) [Compound 11167] | ≤ 0.075
C=CCNC(=O)C(=O)C(CC1CC1)NC(=O)[C@@H]1[C@@H]2[C@H](CN1C(=O)[C@@H](NC(=O)N[C@H](CN(CC1CCCCC1)S(C)(=O)=O)C(C)(C)C)C(C)(C)C)C2(C)C (some centres unmarked) [Compound 11168] | ≤ 0.075
C=CCNC(=O)C(=O)C(CCCC)NC(=O)[C@@H]1[C@@H]2[C@H](CN1C(=O)[C@@H](NC(=O)N[C@H](CN(CC1CCCCC1)S(C)(=O)=O)C(C)(C)C)C(C)(C)C)C2(C)C (some centres unmarked) [Compound 11169] | ≤ 0.075
C=CCNC(=O)C(=O)C(CCCC)NC(=O)[C@@H]1[C@@H]2[C@H](CN1C(=O)[C@@H](NC(=O)N[C@H](CN(CC)S(C)(=O)=O)C(C)(C)C)C(C)(C)C)C2(C)C (some centres unmarked) [Compound 11170] | ≤ 0.075
C=CCNC(=O)C(=O)C(CC1CC1)NC(=O)[C@@H]1[C@@H]2[C@H](CN1C(=O)[C@@H](NC(=O)N[C@H](CN(CC)S(C)(=O)=O)C(C)(C)C)C(C)(C)C)C2(C)C (some centres unmarked) [Compound 11171] | ≤ 0.075
C=CCNC(=O)C(=O)C(CCCC)NC(=O)[C@@H]1[C@@H]2[C@H](CN1C(=O)[C@@H](NC(=O)N[C@H](CN(CCC(C)(C)C)S(C)(=O)=O)C(C)(C)C)C(C)(C)C)C2(C)C (some centres unmarked) [Compound 11172] | ≤ 0.075
C=CCNC(=O)C(=O)C(CC1CC1)NC(=O)[C@@H]1[C@@H]2[C@H](CN1C(=O)[C@@H](NC(=O)N[C@H](CN(CCC(C)(C)C)S(C)(=O)=O)C(C)(C)C)C(C)(C)C)C2(C)C (some centres unmarked) [Compound 11173] | ≤ 0.075
CC(C)(C)[C@H](NC(=O)N[C@H](CN(CC1CCCCC1)S(C)(=O)=O)C(C)(C)C)C(=O)N1C[C@H]2[C@@H]([C@H]1C(=O)NC(CC1CCC1)C(=O)C(N)=O)C2(C)C (some centres unmarked) [Compound 11174] | ≤ 0.075
CC(C)(C)CCN(C[C@@H](NC(=O)N[C@H](C(=O)N1C[C@H]2[C@@H]([C@H]1C(=O)NC(CC1CCC1)C(=O)C(N)=O)C2(C)C)C(C)(C)C)C(C)(C)C)S(C)(=O)=O (some centres unmarked) [Compound 11175] | ≤ 0.075
C=CCNC(=O)C(=O)C(CC1CC1)NC(=O)[C@@H]1[C@@H]2[C@H](CN1C(=O)[C@@H](NC(=O)N[C@H](CN(C)S(=O)(=O)c1cccs1)C(C)(C)C)C1Cc3ccccc3C1)C2(C)C (some centres unmarked) [Compound 11176] | ≤ 0.075
C=CCNC(=O)C(=O)C(CCCC)NC(=O)[C@@H]1[C@@H]2[C@H](CN1C(=O)[C@@H](NC(=O)N[C@H](CN(C)S(=O)(=O)c1cccs1)C(C)(C)C)C1Cc3ccccc3C1)C2(C)C (some centres unmarked) [Compound 11177] | ≤ 0.075
C#CCCC(NC(=O)[C@@H]1[C@@H]2[C@H](CN1C(=O)[C@@H](NC(=O)N[C@H](CN(C)S(=O)(=O)c1cccs1)C(C)(C)C)C1Cc3ccccc3C1)C2(C)C)C(=O)C(=O)NCC=C (some centres unmarked) [Compound 11178] | ≤ 0.075

— patent US7759499B2, “Compounds as inhibitors of hepatitis C virus NS3 serine protease” (Schering Corporation, priority 2004, dated 2010)
